{"source": "patent US9474749B2", "about": "“Morphine and morphine precursors” (priority 2004, dated 2016)", "test_system": "mu3 opiate receptor", "note": "Like-named read-outs stand apart in the source and are kept apart here."}
{"compound": "CN1CC[C@]23c4c5ccc(O)c4O[C@H]2[C@@H](O)C=C[C@H]3[C@H]1C5", "note": "[Morphine, morphine]", "values": [{"measurement": "mu3 opiate receptor binding", "setting": "daily 0.01 μM morphine", "result": "did not"}, {"measurement": "mu3 opiate receptor binding", "setting": "daily 1 μM morphine", "result": "reduced mu3 opiate receptor binding"}]}
